Test results published in ChEMBL document CHEMBL3124799, “Discovery of 1,3,4-oxidiazole scaffold compounds as inhibitors of superoxide dismutase expression” (Bioorg Med Chem Lett, 2014).

Protein sequences, listed by entry. Tags and fused reporters are not part of them. Lines headed by an entry give the natural chain unless they say otherwise; changes in a name come on top.
UniProt P49841: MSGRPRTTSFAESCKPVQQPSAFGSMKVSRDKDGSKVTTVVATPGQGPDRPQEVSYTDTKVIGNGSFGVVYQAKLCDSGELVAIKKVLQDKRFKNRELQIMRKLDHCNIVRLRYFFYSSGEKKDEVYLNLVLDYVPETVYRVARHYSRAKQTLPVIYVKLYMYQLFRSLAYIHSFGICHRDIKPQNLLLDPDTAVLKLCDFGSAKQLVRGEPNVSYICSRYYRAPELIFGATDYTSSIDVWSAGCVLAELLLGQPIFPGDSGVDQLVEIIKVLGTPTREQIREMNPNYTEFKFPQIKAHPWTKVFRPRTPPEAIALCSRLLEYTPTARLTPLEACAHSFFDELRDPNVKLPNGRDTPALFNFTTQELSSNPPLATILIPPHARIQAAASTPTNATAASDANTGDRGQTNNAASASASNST

Target: Glycogen synthase kinase-3 beta (Homo sapiens, UniProt P49841)
Assay: Inhibition of GSK3beta (unknown origin)

SMILES: O=C1NC(=O)C(c2cn(CCCO)c3ncccc23)=C1c1cnccn1
- IC50: 25 nM
